## Measured affinities in a library of Ab-91 heavy chain variants

Target: peptide PDVDLGDISGINAS, taken from heptad repeat 2 (HR2) of SARS-CoV-2 spike.

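The parent was found by panning a naive human phage display library on the peptide. In library AAYL51, one, two or three CDR residues were substituted; doubles and triples were drawn at random. AlphaSeq pools MATa yeast showing the antibodies with MATalpha yeast showing the peptide. After mating in shaken culture at 30 °C for 16 h, diploids were selected and their barcode pairs sequenced. Each replicate has its own calibration line, from reference interactions of the BCL2 family. There are three technical replicates.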

Parent scFv Ab-91: VL joined to VH by a (GGGGS)3 linker. Changes lie in the heavy chain CDRs alone.
VL: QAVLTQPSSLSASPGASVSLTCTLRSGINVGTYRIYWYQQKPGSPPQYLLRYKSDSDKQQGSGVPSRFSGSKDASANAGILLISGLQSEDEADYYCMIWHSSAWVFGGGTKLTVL
VH: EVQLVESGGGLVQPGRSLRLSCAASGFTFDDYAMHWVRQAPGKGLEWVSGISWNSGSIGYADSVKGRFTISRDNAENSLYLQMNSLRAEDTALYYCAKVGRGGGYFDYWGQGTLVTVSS

Variants are written as CDR1, CDR2 and CDR3 of the heavy chain (limits as in the source). Parent: GFTFDDYAMH, GISWNSGSIGYADSVK, VGRGGGYFDY.
This list gathers variants with a substitution at K65 (VH, numbered from residue 1).
Values are apparent Kd, the geometric mean of the replicates that gave a signal; lower means stronger binding.
"nd" marks a missing value. The strain was present, yet no cells mated with the target were sequenced in any replicate, which points to weak or no binding.
As a blank, each scFv also met three strains without target: over library AAYL51, 21% of these pairings were detected, typically at 34 µM and seldom below 1.8 µM. The control count says in how many pairings with the empty strains this scFv gave a signal.

For GFTFDDYAMH / GIPWNSGKIGYADSVF / VGRGGGYFDY, the assay gave nd (0 of 3 replicates; controls 1 of 9).
For GFTFDDYAME / GISWNRGSIGYADSVF / VGRGGGYFDY, the assay gave 11 µM (1 of 3 replicates; controls 2 of 9).
For GFTFDDYAMH / GISWWSGSIGYADSVE / VGRGGGQFDY, the assay gave 6.9 µM (1 of 3 replicates; controls 0 of 9).
For GFTFDDYAMH / GISWWSGSIGMADSVG / VGRGGGYFDY, the assay gave 29 µM (3 of 3 replicates; controls 4 of 9).
For GFTFDDYAMH / GISWNSKSIGYADSVE / VGRGGGYFDM, the assay gave 14 nM (3 of 3 replicates; controls 0 of 9).
For GFTFDDEAMH / GISWNSGSIGYADSVY / VGRGGGYFDY, the assay gave 12 µM (1 of 3 replicates; controls 3 of 9).
For GFTFDDYAMH / GISWNYGSIGYADSVW / VGRGTGYFDY, the assay gave 4.5 µM (1 of 3 replicates; controls 0 of 9).
For GFTFDDYAMH / GISWNSGSIGYAGSVT / VTRGGGYFDY, the assay gave 120 µM (3 of 3 replicates; controls 9 of 9).
For WFTFDDYAMH / GISWNSGSIGYADSVM / VGRIGGYFDY, the assay gave 250 µM (1 of 3 replicates; controls 4 of 9).
For GETFDDYAMH / GISWNSGSIGYADSVD / VGRGGGYFDY, the assay gave 11 µM (2 of 3 replicates; controls 1 of 9).
For GFDFDDYAMH / GISWNSCSIGYADSVW / VGRGGGYFDY, the assay gave 110 nM (3 of 3 replicates; controls 2 of 9).
For GFTFDDYAMH / GISWNSGSIGYADSVY / VGRDWGYFDY, the assay gave 140 µM (1 of 3 replicates; controls 0 of 9).
For GLTFDDYAMH / GISWNSGSIGYADSVQ / VGTGGGYFDY, the assay gave 12 µM (1 of 3 replicates; controls 3 of 9).
For GFTFQDYAMH / GISWNSGSIGYADSVP / VGRGGGYFDE, the assay gave 38 µM (1 of 3 replicates; controls 0 of 9).
For GFTFDDYAMH / GISWNRGSIGYADSVA / VGAGGGYFDY, the assay gave 28 µM (2 of 3 replicates; controls 3 of 9).
For GFTFDDYRMK / GISWNSGSIGYADSVL / VGRGGGYFDY, the assay gave 610 µM (1 of 3 replicates; controls 2 of 9).
For GFTFDDYAMH / GISWNSWSIGYADSVQ / VGRGGGRFDY, the assay gave nd (0 of 3 replicates; controls 0 of 9).
For GFTSDDYAMH / GISWNSGSIGYADSAW / VGRGGGYFDY, the assay gave 100 nM (1 of 3 replicates; controls 0 of 9).
For GFTFDDYAMH / GISLNSGSIGYADSVN / VGPGGGYFDY, the assay gave 37 nM (3 of 3 replicates; controls 1 of 9).
For GVTFDDYAMH / GMSWNSGSIGYADSVR / VGRGGGYFDY, the assay gave 27 µM (3 of 3 replicates; controls 5 of 9).
For GFTFDDYAMV / GISWNSGSIGYADSVQ / VGRKGGYFDY, the assay gave 32 µM (2 of 3 replicates; controls 2 of 9).
For GFTFDDYAMT / GISWNSGSICYADSVA / VGRGGGYFDY, the assay gave nd (0 of 3 replicates; controls 2 of 9).
For GFTFDDYAMH / GISWNSGSIGYADSVQ / VGRGGGYFDY, the assay gave nd (0 of 3 replicates; controls 1 of 9).
For GFTFDDYAMH / GISWNSGSIGYARSVG / VGRGGGEFDY, the assay gave 400 nM (3 of 3 replicates; controls 0 of 9).
For GFTTDDYAMH / GISWNSGSIGYADSVT / VGRGGGYNDY, the assay gave 8.2 nM (3 of 3 replicates; controls 1 of 9).
For GFTFDDYAYH / GISWNSGSIHYADSVY / VGRGGGYFDY, the assay gave nd (0 of 3 replicates; controls 3 of 9).
For GFTFDDYAMH / GISKNSGSIGYASSVV / VGRGGGYFDY, the assay gave 680 nM (1 of 3 replicates; controls 1 of 9).
For GFTFDDYAMH / GISWNSGSIGYADSVD / AGRGGGYFDY, the assay gave 13 µM (1 of 3 replicates; controls 3 of 9).
For GFTFDDYAMH / GISSNSGSIGYRDSVE / VGRGGGYFDY, the assay gave nd (0 of 3 replicates; controls 1 of 9).
For GFMFDDYAMH / GQSWNSGSIGYADSVW / VGRGGGYFDY, the assay gave 38 µM (2 of 3 replicates; controls 5 of 9).
For GFTFDDYAMH / GISWGSGSIGYADSVW / VGRGGGYFDY, the assay gave 1.7 µM (1 of 3 replicates; controls 0 of 9).
For GFTFDDYANH / GISWNSGRIGYADSVA / VGRGGGYFDY, the assay gave 18 µM (1 of 3 replicates; controls 0 of 9).
For GCTFDDYAMH / GISWNSGSIGYADSVQ / VGRVGGYFDY, the assay gave 84 µM (2 of 3 replicates; controls 7 of 9).
For GFTFQDYAMH / GISWRSGSIGYADSVS / VGRGGGYFDY, the assay gave 7.5 µM (2 of 3 replicates; controls 0 of 9).
For GFTFDDYAMH / GISWNSGSIGYADSVV / VGRGMRYFDY, the assay gave 3.2 mM (1 of 3 replicates; controls 5 of 9).
For GFYFDDYAMH / GISWNSGPIGYADSVL / VGRGGGYFDY, the assay gave 83 µM (2 of 3 replicates; controls 3 of 9).
For GFTFDDYAMH / GISWNSGSKGYADSVM / DGRGGGYFDY, the assay gave 3.5 nM (3 of 3 replicates; controls 0 of 9).

For reference, 5 entries of the list once more:

For GFTFDDYAMT / GISWNSGSICYADSVA / VGRGGGYFDY, the assay gave nd (0 of 3 replicates; controls 2 of 9).
For GFTFDDEAMH / GISWNSGSIGYADSVY / VGRGGGYFDY, the assay gave 12 µM (1 of 3 replicates; controls 3 of 9).
For GFTFDDYAMH / GISWNRGSIGYADSVA / VGAGGGYFDY, the assay gave 28 µM (2 of 3 replicates; controls 3 of 9).
For GFTFDDYAMH / GISSNSGSIGYRDSVE / VGRGGGYFDY, the assay gave nd (0 of 3 replicates; controls 1 of 9).
For GFTFDDYAMH / GISWNYGSIGYADSVW / VGRGTGYFDY, the assay gave 4.5 µM (1 of 3 replicates; controls 0 of 9).

Data: MIT Lincoln Laboratory AlphaSeq set, Engelhart et al. 2022, doi:10.1038/s41597-022-01779-4, as distributed in FLAb.